The record followed here is paper PMC10539800, “Small-molecule inhibitors of the PDZ domain of Dishevelled proteins interrupt Wnt signalling” (Magnetic resonance, 2021).

Protein sequences, listed by entry. Tags and fused reporters are not part of them. Lines headed by an entry give the natural chain unless they say otherwise; changes in a name come on top.
UniProt O14640: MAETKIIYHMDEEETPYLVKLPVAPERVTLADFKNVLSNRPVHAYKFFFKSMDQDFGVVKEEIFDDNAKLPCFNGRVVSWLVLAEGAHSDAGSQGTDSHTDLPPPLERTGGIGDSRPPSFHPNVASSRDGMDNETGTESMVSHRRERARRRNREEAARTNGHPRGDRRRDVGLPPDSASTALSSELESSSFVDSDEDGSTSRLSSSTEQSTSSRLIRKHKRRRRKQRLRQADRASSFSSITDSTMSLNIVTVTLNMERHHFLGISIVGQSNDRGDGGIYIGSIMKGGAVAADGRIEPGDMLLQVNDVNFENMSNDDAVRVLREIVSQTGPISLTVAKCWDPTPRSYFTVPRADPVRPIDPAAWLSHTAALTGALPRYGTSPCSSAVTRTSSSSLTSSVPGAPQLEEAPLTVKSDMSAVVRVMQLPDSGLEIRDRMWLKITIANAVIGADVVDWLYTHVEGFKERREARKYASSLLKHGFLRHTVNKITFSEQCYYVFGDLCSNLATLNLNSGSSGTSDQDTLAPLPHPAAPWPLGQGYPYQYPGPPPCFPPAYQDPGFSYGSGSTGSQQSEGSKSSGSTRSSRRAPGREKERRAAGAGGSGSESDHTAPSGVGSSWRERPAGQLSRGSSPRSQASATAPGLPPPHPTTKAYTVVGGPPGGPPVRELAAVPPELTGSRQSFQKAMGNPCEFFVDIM

Data set [1] deals with T1, Dvl-1 PDZ (Homo sapiens, UniProt O14640, C338S/V250I).
T1 sequence (O14640 245-338 V250I/C338S): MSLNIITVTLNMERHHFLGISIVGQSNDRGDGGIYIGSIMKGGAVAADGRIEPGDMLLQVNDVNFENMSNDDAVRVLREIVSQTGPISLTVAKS
The data set can be described thus: biochemical.

In data set [2] the target is T1, Dvl-1 PDZ. Kind of data set: Binding constant by NMR titration. The arrangement: Dvl-1 PDZ domain (O14640, residues 245–338); made in house; host or cells: E. coli BL21 (DE3).
The test system of the next data set is HEK293 cells. The data set can be described thus: MTT cell viability assay. The note with it: 24 h. The data set is classed as cell-based. How it is done:
Possible cytotoxic effects of compounds 3, 7, 8, 9, and 10 were evaluated in cell viability assays using HEK293 cells (Fig. S4). These compounds were selected due to different substituents at the R 1 , including halogens. […] Compounds 3 and 10 that contained fluorine or methyl group substituents at R 2 , respectively, were the least toxic, while compound 7, containing bromine, was the most toxic. The results from crystallography, modelling studies, and of the cell proliferation assays led us to further investigate compounds 18–21 that contain a methyl group at the R 1 position and different substituents as R 2 . In this way, we aimed to develop both potent and less-toxic cell-permeable inhibitors. […] Compound 18 contains a pyrazole ring which is considered an important biologically active heterocyclic moiety (Lv et al., 2010). […] Their binding constants almost have the same value despite the different substituents (bromine or chlorine) at the pyrrole rings. […] Instead, a π – π stacking interaction with F259 was observed (Fig. S3i).
HEK293 cells were plated on a 96-well plate and treated with different concentrations of Dvl inhibitors. After 24 h treatment, 20 µL of MTT solution (5 mg mL ^-1 ) was added into each well. After 2 h incubation, cell culture medium was replaced with 50 µL DMSO, and the signal of the purple formazan, produced by living cells, was measured by a plate reader.

The target in another data set is T2, Shank-3 PDZ (Mus musculus, UniProt Q4ACU6).
T2 sequence (Q4ACU6 562-669): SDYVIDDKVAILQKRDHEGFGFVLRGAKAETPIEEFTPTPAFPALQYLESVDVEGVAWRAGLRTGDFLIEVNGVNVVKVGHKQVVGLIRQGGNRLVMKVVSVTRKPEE
The data set can be described thus: Selectivity by NMR chemical shift perturbation. To be noted: mean of 3 residues.

In another data set the target is T3, α-1-syntrophin PDZ (Mus musculus, UniProt Q61234).
T3 sequence (Q61234 81-164): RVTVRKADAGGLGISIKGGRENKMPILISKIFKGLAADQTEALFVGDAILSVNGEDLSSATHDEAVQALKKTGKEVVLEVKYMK
Kind of data set: Selectivity by NMR chemical shift perturbation. The note with it: a-1-Syn; mean of 3 residues.

The target of the next data set is PSD95-3 PDZ (Homo sapiens, UniProt P78352). Kind of data set: Selectivity by NMR chemical shift perturbation. The note with it: mean of 3 residues.
Data set [3] has as its target T4, Dvl-3 PDZ (Homo sapiens, UniProt Q92997).
T4 construct: spectra of Dvl-3 PDZ in the absence and presence of the compound; His-tag (cleaved yes); made in house
T4 sequence (Q92997 243-336): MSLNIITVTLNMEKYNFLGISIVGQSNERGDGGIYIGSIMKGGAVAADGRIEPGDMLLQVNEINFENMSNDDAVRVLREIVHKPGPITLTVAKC
Kind of data set: NMR 1H-15N HSQC chemical shift perturbation. The data set is classed as binding. To be noted: average of the three strongest shifting cross peaks. How it is done: The results of virtual screening were checked experimentally by comparing 2D ^1H-^15N HSQC (heteronuclear single quantum correlation) spectra of Dvl-3 PDZ in the absence and presence of the compound to elucidate ligand-induced changes of chemical shifts. Chemical shift perturbation differences ( Δ CSP, representing the average of the three strongest shifting cross peaks according to Eq. 1) were evaluated in cases where the residues responding strongest are inside the area defined by Fig. 1a. […] In most cases, the signals of residues S263, V287, and R320 (Fig. 1a) within the conserved binding site were most strongly perturbed (Fig. S2). With the Δ CSP of 0.12 ppm, the isoleucine-derived compound 1 ((2,3-dihydrobenzo[b][1,4]dioxin-6-yl)sulfonyl)-L-isoleucine containing a sulfonamide moiety was detected initially as one of the best “hits” according to chemical shift changes. The sulfonamide is a well-known moiety in drug discovery (Mathvink et al., 1999; Wu et al., 1999; Sleight et al., 1998; O'Brien et al., 2000; Tellew et al., 2003).
Two-dimensional ^1H-^15N HSQC spectra were used to screen a library of 212 compounds designed by the company Enamine for PDZ domains. 50 µM of ^15N -labelled protein samples was prepared in a 20 mM sodium phosphate buffer, containing 50 mM sodium chloride, 0.02 % ( w/v ) NaN3 , at pH 7.4. Stock solutions of small molecules were prepared in DMSO-d6 at a concentration of 160 mM. A ^1H-^15N HSQC spectrum of Dvl PDZ was acquired at 300 K with 5 % DMSO-d6 in the absence of ligand as reference spectrum. Mixtures of 16 compounds were added to ^15N -labelled Dvl PDZ at eightfold molar excess each. The final concentration of DMSO-d6 in the protein–ligand solutions was 5 %. Spectra were acquired with eight scans and 256 points in the indirect dimension. […] The active compound was obtained through successive deconvolution. Experiments were recorded on a Bruker DRX600 spectrometer equipped with a triple-resonance cryoprobe. The preparation of samples was done automatically by a Tecan Genesis RSP 150 pipetting robot. Spectra were analysed using the programs TOPSPIN and SPARKY (Goddard and Kneller, 2003).
50 µM of ^15N -labelled protein samples was prepared in a 20 mM sodium phosphate buffer containing 50 mM sodium chloride, 0.02 % ( w/v ) NaN3 , at pH 7.4. Stock solutions of small molecules were prepared in DMSO-d6 at a concentration of 160 mM. A ^1H-^15N HSQC spectrum of Dvl PDZ was acquired at 300 K with 5 % DMSO-d6 in the absence of ligand as reference spectrum. Mixtures of 16 compounds were added to ^15N -labelled Dvl PDZ at eightfold molar excess each. The final concentration of DMSO-d6 in the protein–ligand solutions was 5 %. Spectra were acquired with eight scans and 256 points in the indirect dimension.
The active compound was obtained through successive deconvolution. Experiments were recorded on a Bruker DRX600 spectrometer equipped with a triple-resonance cryoprobe. The preparation of samples was done automatically by a Tecan Genesis RSP 150 pipetting robot. Spectra were analysed using the programs TOPSPIN and SPARKY.

For a further data set, the target named is PSD95-1 PDZ (Homo sapiens, UniProt P78352). The data set can be described thus: Selectivity by NMR chemical shift perturbation. To be noted: mean of 3 residues.
The target of the next data set is PSD95-2 PDZ (Homo sapiens, UniProt P78352). The data set can be described thus: Selectivity by NMR chemical shift perturbation. The note with it: mean of 3 residues.
A further data set addresses T5, AF-6 PDZ (Homo sapiens, UniProt P55196).
T5 sequence (P55196 985-1086 isoform P55196-2): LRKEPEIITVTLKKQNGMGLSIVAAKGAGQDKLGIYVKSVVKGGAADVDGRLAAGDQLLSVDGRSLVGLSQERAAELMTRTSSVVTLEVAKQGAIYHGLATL
The data set can be described thus: Selectivity by NMR chemical shift perturbation. To be noted: mean of 3 residues.

In data set [4] the target is T1, Dvl-1 PDZ. The data set can be described thus: NMR 1H-15N HSQC chemical shift perturbation. Also noted: Dvl-1 PDZ domain (O14640, residues 245–338); made in house; host or cells: E. coli BL21 (DE3). In kind it is binding. To be noted: mean of 3 residues.
For data set [5], the target named is T4, Dvl-3 PDZ. The data set can be described thus: Binding constant by isothermal titration calorimetry (ITC). To be noted: one-site binding model, 25 °C, read-out: K D Dvl-3 PDZ. The text has this:
Titration of ligand into buffer yielded negligible heat.

[6] abbreviates: by NMR, mean ± SD of at least six residues, read-out: K D Dvl-1 PDZ.

Consider `O=C(O)c1cc(C(F)(F)F)ccc1NS(=O)(=O)c1ccc2c(c1)CCCC2` [Compound 8, 2-(5,6,7,8-Tetrahydronaphthalene-2-sulfonamido)-5-(trifluoromethyl) benzoic acid], for which the Kd on Dvl-1 PDZ [1] came to 24.5 ± 1.5 µM.

As for `O=C(O)c1cc(Cl)ccc1NS(=O)(=O)c1ccc2c(c1)CCCC2` [Compound 9], the Kd at Dvl-1 PDZ [2] (setting [6]) amounted to 45.6 ± 4.5 µM.

Take `Cc1ccc(NS(=O)(=O)c2ccc3c(c2)CCCC3)c(C(=O)O)c1` [Compound 10]: in the data set on HEK293 cells, the “relative toxicity (in words)” value was “least toxic”. The Kd on Dvl-1 PDZ [2] (setting [6]) is 60.5 ± 5.3 µM.

On Dvl-1 PDZ [1], `Cc1ccc(NS(=O)(=O)c2ccc(CNC(=O)c3cc(Br)c[nH]3)c(Cl)c2)c(C(=O)O)c1` [Compound 20] yielded a Kd of 4.7 ± 0.3 µM. The “Chemical shift perturbation ΔCSP” value came to 0.05 ppm on Shank-3 PDZ; 0.07 ppm on α-1-syntrophin PDZ; 0.06 ppm on PSD95-3 PDZ; 0.36 ppm on Dvl-3 PDZ [3]; 0.06 ppm on PSD95-1 PDZ; 0.09 ppm on PSD95-2 PDZ. Moreover, the “Chemical shift perturbation ΔCSP” value was 0.01 ppm at AF-6 PDZ and 0.3 ppm on Dvl-1 PDZ [4].

Consider `O=C(O)c1cc(Br)ccc1NS(=O)(=O)c1ccc2c(c1)CCCC2` [Compound 7], for which the “relative toxicity (in words)” value with HEK293 cells is “most toxic”. Also, at Dvl-1 PDZ [2] (setting [6]), the Kd was determined as 18.2 ± 2.4 µM.

Consider `O=C(O)c1cc(Br)ccc1NS(=O)(=O)c1ccc(COc2ccccc2)cc1` [Compound 13, 5-Bromo-2-(4-(phenoxymethyl)phenylsulfonamido)benzoic acid], for which the Kd on Dvl-1 PDZ [1] was found to be 213 µM.

On to `Cc1ccc(NS(=O)(=O)c2ccc(CNC(=O)c3n[nH]c4ccccc34)c(Cl)c2)c(C(=O)O)c1` [Compound 18], for which the Kd at Dvl-1 PDZ [1] was determined as 2.4 ± 0.2 µM. For the same molecule, the “Chemical shift perturbation ΔCSP” value at Shank-3 PDZ was 0.01 ppm; at α-1-syntrophin PDZ it was 0.08 ppm; at PSD95-3 PDZ it was 0.05 ppm; at Dvl-3 PDZ [3], 0.30 ppm; on PSD95-1 PDZ, 0.05 ppm; at PSD95-2 PDZ, 0.1 ppm. The “Chemical shift perturbation ΔCSP” value at AF-6 PDZ stood at 0.01 ppm; at Dvl-1 PDZ [4], 0.32 ppm.

With `O=C(O)c1cc(Br)ccc1NS(=O)(=O)c1ccc2ccccc2c1` [Compound 11, 5-Bromo-2-(naphthalene-2-sulfonamido) benzoic acid], on Dvl-1 PDZ [1], the Kd turned out to be 120 µM.

`Cc1ccc(NS(=O)(=O)c2ccc(CNC(=O)c3c[nH]c4ccccc34)c(Cl)c2)c(C(=O)O)c1` [Compound 19] returned a Kd at Dvl-1 PDZ [1] of 8 ± 0.5 µM.

Consider `O=C(O)c1cc(F)ccc1NS(=O)(=O)c1ccc2c(c1)CCC2` [Compound 3], for which, at Dvl-3 PDZ [3], the “Chemical shift perturbation ΔCSP” value is above 0.2 ppm. In addition, in the data set on HEK293 cells, the “relative toxicity (in words)” value was “least toxic”. Further, at Dvl-1 PDZ [2] (setting [6]), the Kd was 113 ± 25.9 µM.

In the case of `Cc1ccc(S(=O)(=O)Nc2ccc(F)cc2C(=O)O)cc1C` [Compound 4], the “Chemical shift perturbation ΔCSP” value at Dvl-3 PDZ [3] is above 0.2 ppm. At Dvl-1 PDZ [2], the Kd worked out at 114 ± 9.8 µM.

With `CC1=C(CC(=O)O)c2cc(F)ccc2/C1=C\c1ccc([S+](C)[O-])cc1` (stereo not drawn) [Sulindac, reference compound], the Kd at Dvl-3 PDZ [5] was 8.3 ± 2.5 µM.

On Dvl-1 PDZ [1], `Cc1ccc(NS(=O)(=O)c2ccc(CNC(=O)c3cc(Cl)c[nH]3)c(Cl)c2)c(C(=O)O)c1` [Compound 21] showed a Kd of 4.7 ± 0.2 µM. For the same molecule, the “Chemical shift perturbation ΔCSP” value came out at 0.05 ppm on Shank-3 PDZ; 0.08 ppm on α-1-syntrophin PDZ; 0.1 ppm at PSD95-3 PDZ; 0.36 ppm on Dvl-3 PDZ [3]; 0.07 ppm at PSD95-1 PDZ; 0.09 ppm on PSD95-2 PDZ. For the same molecule, the “Chemical shift perturbation ΔCSP” value on AF-6 PDZ worked out at 0.01 ppm; at Dvl-1 PDZ [4] it was 0.3 ppm.
